Data: article PMC12678819, “Targeting bacterial kinases as a strategy to counteract antibiotic resistance” (2025)

Sequences of proteins named here, by UniProt entry; tags and fusion partners are left off. A change or cut given only in a name is not applied to a line headed by its entry. Residues count along the entry.
UniProt P27448, 56-307 limits assumed: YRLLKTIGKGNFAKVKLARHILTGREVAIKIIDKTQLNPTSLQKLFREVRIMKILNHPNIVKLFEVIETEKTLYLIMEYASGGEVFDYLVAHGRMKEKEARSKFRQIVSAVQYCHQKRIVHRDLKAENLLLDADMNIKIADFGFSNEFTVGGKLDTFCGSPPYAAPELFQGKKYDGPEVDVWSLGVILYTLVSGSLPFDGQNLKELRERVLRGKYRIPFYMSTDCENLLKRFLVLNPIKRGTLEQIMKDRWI
UniProt O15075, 372-649 limits assumed: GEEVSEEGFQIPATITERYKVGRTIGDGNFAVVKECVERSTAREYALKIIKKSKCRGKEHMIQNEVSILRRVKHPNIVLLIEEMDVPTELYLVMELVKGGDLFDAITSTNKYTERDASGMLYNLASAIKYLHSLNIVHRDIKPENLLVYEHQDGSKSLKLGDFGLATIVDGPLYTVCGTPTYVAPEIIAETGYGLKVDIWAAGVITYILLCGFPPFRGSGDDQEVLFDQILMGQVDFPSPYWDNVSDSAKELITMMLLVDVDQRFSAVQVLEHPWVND
UniProt P54764, 621-882 limits assumed: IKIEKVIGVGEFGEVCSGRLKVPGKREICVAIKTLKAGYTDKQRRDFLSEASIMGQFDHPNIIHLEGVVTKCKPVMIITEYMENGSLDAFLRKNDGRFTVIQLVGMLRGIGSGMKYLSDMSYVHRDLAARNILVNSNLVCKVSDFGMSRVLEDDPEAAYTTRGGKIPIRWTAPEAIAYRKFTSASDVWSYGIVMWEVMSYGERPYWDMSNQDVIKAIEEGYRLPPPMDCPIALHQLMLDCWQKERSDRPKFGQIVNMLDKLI
UniProt Q99683, 659-951 limits assumed: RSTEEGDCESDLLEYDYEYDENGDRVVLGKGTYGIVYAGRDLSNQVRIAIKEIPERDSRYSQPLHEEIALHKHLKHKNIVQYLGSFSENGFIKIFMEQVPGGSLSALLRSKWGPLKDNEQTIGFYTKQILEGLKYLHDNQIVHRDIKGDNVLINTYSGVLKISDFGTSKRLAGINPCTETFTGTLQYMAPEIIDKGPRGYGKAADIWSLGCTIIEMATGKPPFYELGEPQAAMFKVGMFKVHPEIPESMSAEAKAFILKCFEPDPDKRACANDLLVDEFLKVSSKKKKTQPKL
UniProt P15735, 6-293 limits assumed: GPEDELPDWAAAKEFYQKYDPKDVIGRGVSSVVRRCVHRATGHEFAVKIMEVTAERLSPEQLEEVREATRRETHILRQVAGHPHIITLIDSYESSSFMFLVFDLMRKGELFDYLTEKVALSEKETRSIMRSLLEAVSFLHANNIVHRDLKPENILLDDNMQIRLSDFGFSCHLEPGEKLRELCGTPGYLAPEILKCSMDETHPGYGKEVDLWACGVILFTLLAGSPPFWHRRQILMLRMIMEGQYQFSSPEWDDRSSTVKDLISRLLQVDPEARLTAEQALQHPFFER
UniProt O94768, 25-329 limits assumed: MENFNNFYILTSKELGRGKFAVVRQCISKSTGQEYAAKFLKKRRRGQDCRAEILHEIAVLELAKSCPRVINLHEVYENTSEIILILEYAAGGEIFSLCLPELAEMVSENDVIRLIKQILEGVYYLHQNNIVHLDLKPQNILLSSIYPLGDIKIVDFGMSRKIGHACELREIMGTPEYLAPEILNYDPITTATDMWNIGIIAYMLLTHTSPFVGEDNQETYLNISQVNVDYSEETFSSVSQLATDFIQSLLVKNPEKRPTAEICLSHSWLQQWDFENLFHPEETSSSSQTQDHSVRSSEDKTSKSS
UniProt P16083: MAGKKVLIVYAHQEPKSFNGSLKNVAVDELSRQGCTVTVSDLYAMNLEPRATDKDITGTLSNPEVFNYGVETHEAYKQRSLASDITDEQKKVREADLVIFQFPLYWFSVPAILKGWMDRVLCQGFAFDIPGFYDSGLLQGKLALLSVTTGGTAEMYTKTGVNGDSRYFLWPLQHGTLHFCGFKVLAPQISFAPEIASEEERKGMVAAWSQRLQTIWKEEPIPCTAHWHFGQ
UniProt Q8IU85: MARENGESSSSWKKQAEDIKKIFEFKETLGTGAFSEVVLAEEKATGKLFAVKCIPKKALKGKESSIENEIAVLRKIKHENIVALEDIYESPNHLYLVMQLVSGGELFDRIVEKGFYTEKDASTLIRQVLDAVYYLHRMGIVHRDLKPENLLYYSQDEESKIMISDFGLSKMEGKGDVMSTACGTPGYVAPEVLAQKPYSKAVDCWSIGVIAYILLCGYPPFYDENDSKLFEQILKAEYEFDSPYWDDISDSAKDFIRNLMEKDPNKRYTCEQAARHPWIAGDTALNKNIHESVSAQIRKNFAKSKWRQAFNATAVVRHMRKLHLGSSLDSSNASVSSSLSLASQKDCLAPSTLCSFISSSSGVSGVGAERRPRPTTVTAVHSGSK
UniProt P49137, 64-325 limits assumed: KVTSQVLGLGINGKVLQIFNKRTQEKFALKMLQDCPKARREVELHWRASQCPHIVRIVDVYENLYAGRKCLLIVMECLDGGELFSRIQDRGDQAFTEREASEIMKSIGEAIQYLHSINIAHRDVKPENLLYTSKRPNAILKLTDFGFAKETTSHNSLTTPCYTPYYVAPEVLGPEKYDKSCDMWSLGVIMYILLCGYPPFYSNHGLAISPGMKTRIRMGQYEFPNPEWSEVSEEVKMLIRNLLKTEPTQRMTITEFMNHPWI
UniProt Q16566, 46-300 limits assumed: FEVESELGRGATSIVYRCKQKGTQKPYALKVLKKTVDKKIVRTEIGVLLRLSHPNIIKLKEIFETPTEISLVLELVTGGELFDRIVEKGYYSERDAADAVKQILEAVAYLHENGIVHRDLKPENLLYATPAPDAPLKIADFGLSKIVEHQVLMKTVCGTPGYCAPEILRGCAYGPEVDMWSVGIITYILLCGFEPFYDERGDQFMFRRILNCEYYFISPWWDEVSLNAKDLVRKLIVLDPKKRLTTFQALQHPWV
UniProt O15164: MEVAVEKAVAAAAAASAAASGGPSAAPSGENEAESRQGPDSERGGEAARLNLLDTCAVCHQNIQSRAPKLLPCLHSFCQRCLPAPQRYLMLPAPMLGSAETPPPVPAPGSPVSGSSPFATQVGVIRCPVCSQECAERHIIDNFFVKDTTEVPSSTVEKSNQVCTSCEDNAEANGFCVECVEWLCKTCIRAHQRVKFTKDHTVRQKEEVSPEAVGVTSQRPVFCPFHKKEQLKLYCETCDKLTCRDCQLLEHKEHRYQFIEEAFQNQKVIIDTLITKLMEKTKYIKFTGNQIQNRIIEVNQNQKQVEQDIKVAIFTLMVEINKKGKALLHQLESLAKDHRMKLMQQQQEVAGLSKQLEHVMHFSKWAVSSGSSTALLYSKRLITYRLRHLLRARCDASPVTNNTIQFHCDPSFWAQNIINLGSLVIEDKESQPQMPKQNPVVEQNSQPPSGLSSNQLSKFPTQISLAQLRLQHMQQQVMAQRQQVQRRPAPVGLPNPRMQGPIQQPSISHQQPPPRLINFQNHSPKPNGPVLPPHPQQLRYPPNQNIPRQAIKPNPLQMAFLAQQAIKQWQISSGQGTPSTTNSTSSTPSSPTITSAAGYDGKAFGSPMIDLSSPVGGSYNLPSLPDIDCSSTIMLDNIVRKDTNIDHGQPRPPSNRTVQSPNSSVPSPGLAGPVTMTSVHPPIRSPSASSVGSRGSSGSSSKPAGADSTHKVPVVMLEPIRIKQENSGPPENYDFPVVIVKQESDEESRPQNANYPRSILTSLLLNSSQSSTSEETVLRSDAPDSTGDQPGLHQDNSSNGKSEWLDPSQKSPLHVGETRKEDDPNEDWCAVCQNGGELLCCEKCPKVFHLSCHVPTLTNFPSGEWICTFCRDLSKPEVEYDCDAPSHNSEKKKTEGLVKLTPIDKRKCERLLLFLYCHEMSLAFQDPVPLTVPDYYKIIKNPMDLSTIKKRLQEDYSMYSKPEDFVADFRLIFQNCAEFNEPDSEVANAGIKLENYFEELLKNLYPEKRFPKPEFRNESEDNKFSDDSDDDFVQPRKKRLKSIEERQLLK
UniProt Q9H2X6, 199-527 limits assumed: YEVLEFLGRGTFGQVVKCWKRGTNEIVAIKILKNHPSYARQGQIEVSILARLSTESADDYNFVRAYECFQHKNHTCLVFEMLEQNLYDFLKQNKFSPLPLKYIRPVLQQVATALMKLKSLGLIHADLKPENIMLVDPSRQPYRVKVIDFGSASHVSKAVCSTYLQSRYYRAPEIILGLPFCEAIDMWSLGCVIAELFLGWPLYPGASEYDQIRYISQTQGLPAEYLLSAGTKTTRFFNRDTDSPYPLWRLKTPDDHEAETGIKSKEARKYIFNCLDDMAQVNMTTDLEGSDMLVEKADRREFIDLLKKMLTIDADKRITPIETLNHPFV
UniProt Q99640, 75-362 limits assumed: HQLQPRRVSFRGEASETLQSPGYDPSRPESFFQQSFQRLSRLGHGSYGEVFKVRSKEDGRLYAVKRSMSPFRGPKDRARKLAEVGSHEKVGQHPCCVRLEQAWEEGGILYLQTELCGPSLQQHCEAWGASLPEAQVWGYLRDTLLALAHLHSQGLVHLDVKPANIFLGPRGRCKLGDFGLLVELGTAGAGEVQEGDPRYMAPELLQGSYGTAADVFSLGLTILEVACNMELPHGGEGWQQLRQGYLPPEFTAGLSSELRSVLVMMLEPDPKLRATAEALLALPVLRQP
UniProt Q00532, 4-287 limits assumed: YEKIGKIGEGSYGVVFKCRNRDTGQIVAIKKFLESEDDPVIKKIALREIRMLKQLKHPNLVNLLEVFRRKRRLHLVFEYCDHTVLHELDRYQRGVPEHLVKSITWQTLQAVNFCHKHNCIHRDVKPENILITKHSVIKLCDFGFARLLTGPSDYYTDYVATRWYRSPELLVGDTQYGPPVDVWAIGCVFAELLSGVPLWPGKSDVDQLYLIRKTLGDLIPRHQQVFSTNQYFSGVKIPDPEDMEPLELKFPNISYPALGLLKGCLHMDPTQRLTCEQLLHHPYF
UniProt Q8TD08, 13-304 limits assumed: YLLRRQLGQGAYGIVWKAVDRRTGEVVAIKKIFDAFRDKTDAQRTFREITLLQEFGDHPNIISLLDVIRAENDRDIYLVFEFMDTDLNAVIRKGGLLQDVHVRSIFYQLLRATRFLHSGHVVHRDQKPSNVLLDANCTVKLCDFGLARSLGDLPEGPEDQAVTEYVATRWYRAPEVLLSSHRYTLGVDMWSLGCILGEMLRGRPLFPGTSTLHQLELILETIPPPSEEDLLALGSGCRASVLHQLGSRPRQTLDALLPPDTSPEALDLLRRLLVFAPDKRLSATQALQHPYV
UniProt P54756, 653-939 limits assumed: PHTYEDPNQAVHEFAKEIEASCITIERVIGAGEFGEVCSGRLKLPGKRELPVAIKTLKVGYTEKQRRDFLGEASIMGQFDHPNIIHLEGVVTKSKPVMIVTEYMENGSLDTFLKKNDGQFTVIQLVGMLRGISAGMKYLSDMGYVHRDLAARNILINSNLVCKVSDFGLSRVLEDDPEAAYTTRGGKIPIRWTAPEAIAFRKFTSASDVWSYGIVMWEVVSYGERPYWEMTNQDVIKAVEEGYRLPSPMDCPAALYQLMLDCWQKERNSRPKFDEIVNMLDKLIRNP
UniProt Q92630, 222-535 limits assumed: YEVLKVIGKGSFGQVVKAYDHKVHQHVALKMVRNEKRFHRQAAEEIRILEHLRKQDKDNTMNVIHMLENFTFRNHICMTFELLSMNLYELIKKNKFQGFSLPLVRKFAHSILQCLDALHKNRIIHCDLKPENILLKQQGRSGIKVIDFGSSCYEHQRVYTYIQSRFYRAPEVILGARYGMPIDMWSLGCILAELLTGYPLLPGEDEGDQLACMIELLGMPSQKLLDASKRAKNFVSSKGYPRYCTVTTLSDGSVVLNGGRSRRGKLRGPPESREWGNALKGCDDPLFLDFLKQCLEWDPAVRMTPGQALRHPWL
UniProt P54762, 619-882 limits assumed: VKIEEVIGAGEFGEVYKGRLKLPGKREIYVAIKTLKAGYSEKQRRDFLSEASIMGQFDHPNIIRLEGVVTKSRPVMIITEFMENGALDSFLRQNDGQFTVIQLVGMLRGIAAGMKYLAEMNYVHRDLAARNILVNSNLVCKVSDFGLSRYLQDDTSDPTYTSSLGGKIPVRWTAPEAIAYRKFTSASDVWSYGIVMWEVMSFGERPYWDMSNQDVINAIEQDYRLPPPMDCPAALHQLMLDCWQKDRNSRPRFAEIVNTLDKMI
UniProt Q13557, 14-272 limits assumed: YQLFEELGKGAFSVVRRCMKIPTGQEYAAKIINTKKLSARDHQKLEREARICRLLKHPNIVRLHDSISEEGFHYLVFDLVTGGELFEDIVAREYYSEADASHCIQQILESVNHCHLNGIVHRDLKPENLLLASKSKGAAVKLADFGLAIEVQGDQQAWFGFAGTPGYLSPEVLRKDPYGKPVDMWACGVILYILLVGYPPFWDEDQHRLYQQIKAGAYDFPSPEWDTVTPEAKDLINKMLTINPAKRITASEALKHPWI

How the values were obtained:
[1] = Plasma stability assay, mouse; settings: 1 μg∙mL-1
MARK3 = MARK3 (Homo sapiens, UniProt P27448); test: DSF kinase panel; settings: 10 μM
PIM3 = PIM3 (Homo sapiens, UniProt Q86V86); test: DSF kinase panel; settings: 10 μM
DCAMKL1 = DCAMKL1 (Homo sapiens, UniProt O15075); test: DSF kinase panel; settings: 10 μM
EPHB3 = EPHB3 (Homo sapiens, UniProt P54753); test: DSF kinase panel; settings: 10 μM
EPHA4 = EPHA4 (Homo sapiens, UniProt P54764); test: DSF kinase panel; settings: 10 μM
MAP3K5 = MAP3K5 (Homo sapiens, UniProt Q99683); test: DSF kinase panel; settings: 10 μM
PHKg2 = PHKg2 (Homo sapiens, UniProt P15735); test: DSF kinase panel; settings: 10 μM
PLK4 = PLK4 (Homo sapiens, UniProt O00444); test: DSF kinase panel; settings: 10 μM
ABL1 = ABL1 (Homo sapiens, UniProt P00519); test: DSF kinase panel; settings: 10 μM
DRAK2 = DRAK2 (Homo sapiens, UniProt O94768); test: DSF kinase panel; settings: 10 μM
DRAK1 = DRAK1 (Homo sapiens, UniProt Q9UEE5); test: DSF kinase panel; settings: 10 μM
RSK1_b = RSK1_b (Homo sapiens, UniProt Q15418); test: DSF kinase panel; settings: 10 μM
NQO2 = NQO2 (Homo sapiens, UniProt P16083); test: DSF kinase panel; settings: 10 μM
CAMK1D = CAMK1D (Homo sapiens, UniProt Q8IU85); test: DSF kinase panel; settings: 10 μM
JNK2 = JNK2 (Homo sapiens, UniProt P45984); test: DSF kinase panel; settings: 10 μM
MST4 = MST4 (Homo sapiens, UniProt Q9P289); test: DSF kinase panel; settings: 10 μM
MAPKAPK2 = MAPKAPK2 (Homo sapiens, UniProt P49137); test: DSF kinase panel; settings: 10 μM
PAK1 = PAK1 (Homo sapiens, UniProt Q13153); test: DSF kinase panel; settings: 10 μM
WNK1 = WNK1 (Homo sapiens, UniProt Q9H4A3); test: DSF kinase panel; settings: 10 μM
SLK = SLK (Homo sapiens, UniProt Q9H2G2); test: DSF kinase panel; settings: 10 μM
CAMK4 = CAMK4 (Homo sapiens, UniProt Q16566); test: DSF kinase panel; settings: 10 μM
TIF1 = TIF1 (Homo sapiens, UniProt O15164); test: DSF kinase panel; settings: 10 μM
FGFR1 = FGFR1 (Homo sapiens, UniProt P11362); test: DSF kinase panel; settings: 10 μM
HIPK2 = HIPK2 (Homo sapiens, UniProt Q9H2X6); test: DSF kinase panel; settings: 10 μM
MRCKa = MRCKa (Homo sapiens, UniProt Q5VT25); test: DSF kinase panel; settings: 10 μM
BRAF = BRAF (Homo sapiens, UniProt P15056); test: DSF kinase panel; settings: 10 μM
CASK = CASK (Homo sapiens, UniProt O14936); test: DSF kinase panel; settings: 10 μM
AURKB = AURKB (Homo sapiens, UniProt Q96GD4); test: DSF kinase panel; settings: 10 μM
CHK2 = CHK2 (Homo sapiens, UniProt O96017); test: DSF kinase panel; settings: 10 μM
BIKE = BIKE (Homo sapiens, UniProt Q9NSY1); test: DSF kinase panel; settings: 10 μM
MYT1 = MYT1 (Homo sapiens, UniProt Q99640); test: DSF kinase panel; settings: 10 μM
CDKL1 = CDKL1 (Homo sapiens, UniProt Q00532); test: DSF kinase panel; settings: 10 μM
MAPK15 = MAPK15 (Homo sapiens, UniProt Q8TD08); test: DSF kinase panel; settings: 10 μM
EPHA5 = EPHA5 (Homo sapiens, UniProt P54756); test: DSF kinase panel; settings: 10 μM
DYRK2 = DYRK2 (Homo sapiens, UniProt Q92630); test: DSF kinase panel; settings: 10 μM
MAP2K1 = MAP2K1 (Homo sapiens, UniProt Q02750); test: DSF kinase panel; settings: 10 μM
VRK1 = VRK1 (Homo sapiens, UniProt Q99986); test: DSF kinase panel; settings: 10 μM
MSSK1 = MSSK1 (Homo sapiens, UniProt Q9UPE1); test: DSF kinase panel; settings: 10 μM
EPHB1 = EPHB1 (Homo sapiens, UniProt P54762); test: DSF kinase panel; settings: 10 μM
CLK3 = CLK3 (Homo sapiens, UniProt P49761); test: DSF kinase panel; settings: 10 μM
CAMK2D = CAMK2D (Homo sapiens, UniProt Q13557); test: DSF kinase panel; settings: 10 μM

C[C@@H](CO)Cn1cc(-c2c(Cl)cnc3[nH]ccc23)nn1
t1/2 mouse plasma [1]: > 4 h | ΔTm MARK3 (MARK3): 2.1 °C | ΔTm PIM3 (PIM3): 1.2 °C | ΔTm DCAMKL1 (DCAMKL1): 1.1 °C | ΔTm EPHB3 (EPHB3): -0.8 °C | ΔTm EPHA4 (EPHA4): 0.4 °C | ΔTm MAP3K5 (MAP3K5): 6.3 °C | ΔTm PHKg2 (PHKg2): 1.5 °C | ΔTm PLK4 (PLK4): 4.5 °C | ΔTm ABL1 (ABL1): 2.0 °C | ΔTm DRAK2 (DRAK2): 2.9 °C | ΔTm DRAK1 (DRAK1): 4.8 °C | ΔTm RSK1_b (RSK1_b): 2.0 °C | ΔTm NQO2 (NQO2): -0.5 °C | ΔTm CAMK1D (CAMK1D): 1.6 °C | ΔTm JNK2 (JNK2): 0.6 °C | ΔTm MST4 (MST4): -0.4 °C | ΔTm MAPKAPK2 (MAPKAPK2): -0.1 °C | ΔTm PAK1 (PAK1): -0.6 °C | ΔTm WNK1 (WNK1): -0.1 °C | ΔTm SLK (SLK): -0.4 °C | ΔTm CAMK4 (CAMK4): 1.0 °C | ΔTm TIF1 (TIF1): -0.5 °C | ΔTm FGFR1 (FGFR1): 1.3 °C | ΔTm HIPK2 (HIPK2): 1.9 °C | ΔTm MRCKa (MRCKa): 0.2 °C | ΔTm BRAF (BRAF): 1.2 °C | ΔTm CASK (CASK): 0.1 °C | ΔTm AURKB (AURKB): 6.3 °C | ΔTm CHK2 (CHK2): 2.8 °C | ΔTm BIKE (BIKE): 10.2 °C | ΔTm MYT1 (MYT1): -0.4 °C | ΔTm CDKL1 (CDKL1): 0.2 °C | ΔTm MAPK15 (MAPK15): 4.5 °C | ΔTm EPHA5 (EPHA5): -0.4 °C | ΔTm DYRK2 (DYRK2): 3.2 °C | ΔTm MAP2K1 (MAP2K1): 0.7 °C | ΔTm VRK1 (VRK1): 0.1 °C | ΔTm MSSK1 (MSSK1): 0.2 °C | ΔTm EPHB1 (EPHB1): 0.4 °C | ΔTm CLK3 (CLK3): 1.7 °C | ΔTm CAMK2D (CAMK2D): -0.9 °C

NC(=O)Cn1cc(-c2c(Cl)cnc3[nH]ccc23)nn1
t1/2 mouse plasma [1]: 1.937 h | ΔTm MARK3 (MARK3): 1.9 °C | ΔTm PIM3 (PIM3): -0.3 °C | ΔTm DCAMKL1 (DCAMKL1): -0.5 °C | ΔTm EPHB3 (EPHB3): -1.6 °C | ΔTm EPHA4 (EPHA4): -0.2 °C | ΔTm MAP3K5 (MAP3K5): 9.4 °C | ΔTm PHKg2 (PHKg2): 1.1 °C | ΔTm PLK4 (PLK4): 2.7 °C | ΔTm ABL1 (ABL1): 1.3 °C | ΔTm DRAK2 (DRAK2): 1.1 °C | ΔTm DRAK1 (DRAK1): 4.5 °C | ΔTm RSK1_b (RSK1_b): 1.2 °C | ΔTm NQO2 (NQO2): -0.7 °C | ΔTm CAMK1D (CAMK1D): 1.4 °C | ΔTm JNK2 (JNK2): 0.1 °C | ΔTm MST4 (MST4): -1.5 °C | ΔTm MAPKAPK2 (MAPKAPK2): 0.0 °C | ΔTm PAK1 (PAK1): -0.9 °C | ΔTm WNK1 (WNK1): -0.2 °C | ΔTm SLK (SLK): -0.6 °C | ΔTm CAMK4 (CAMK4): -1.0 °C | ΔTm TIF1 (TIF1): -0.5 °C | ΔTm FGFR1 (FGFR1): 1.1 °C | ΔTm HIPK2 (HIPK2): 0.9 °C | ΔTm MRCKa (MRCKa): 0.1 °C | ΔTm BRAF (BRAF): 0.9 °C | ΔTm CASK (CASK): -0.1 °C | ΔTm AURKB (AURKB): 6.0 °C | ΔTm CHK2 (CHK2): 2.4 °C | ΔTm BIKE (BIKE): 8.7 °C | ΔTm MYT1 (MYT1): -0.7 °C | ΔTm CDKL1 (CDKL1): -0.1 °C | ΔTm MAPK15 (MAPK15): 2.6 °C | ΔTm EPHA5 (EPHA5): -0.7 °C | ΔTm DYRK2 (DYRK2): 3.4 °C | ΔTm MAP2K1 (MAP2K1): 0.2 °C | ΔTm VRK1 (VRK1): -0.5 °C | ΔTm MSSK1 (MSSK1): -0.4 °C | ΔTm EPHB1 (EPHB1): 0.2 °C | ΔTm CLK3 (CLK3): 0.7 °C | ΔTm CAMK2D (CAMK2D): 0.1 °C

Clc1cnc2[nH]ccc2c1-c1cn(-c2ccccc2)nn1
t1/2 mouse plasma [1]: 2.122 h | ΔTm MARK3 (MARK3): 1.3 °C | ΔTm PIM3 (PIM3): 1.4 °C | ΔTm DCAMKL1 (DCAMKL1): 0.6 °C | ΔTm EPHB3 (EPHB3): -2.3 °C | ΔTm EPHA4 (EPHA4): 0.2 °C | ΔTm MAP3K5 (MAP3K5): 4.9 °C | ΔTm PHKg2 (PHKg2): 0.7 °C | ΔTm PLK4 (PLK4): 3.7 °C | ΔTm ABL1 (ABL1): 1.2 °C | ΔTm DRAK2 (DRAK2): 1.6 °C | ΔTm DRAK1 (DRAK1): 8.0 °C | ΔTm RSK1_b (RSK1_b): 1.5 °C | ΔTm NQO2 (NQO2): -0.8 °C | ΔTm CAMK1D (CAMK1D): 1.2 °C | ΔTm JNK2 (JNK2): -0.1 °C | ΔTm MST4 (MST4): -0.7 °C | ΔTm MAPKAPK2 (MAPKAPK2): -0.3 °C | ΔTm PAK1 (PAK1): -0.4 °C | ΔTm WNK1 (WNK1): -0.6 °C | ΔTm SLK (SLK): -0.6 °C | ΔTm CAMK4 (CAMK4): -0.1 °C | ΔTm TIF1 (TIF1): -0.3 °C | ΔTm FGFR1 (FGFR1): 0.7 °C | ΔTm HIPK2 (HIPK2): 1.2 °C | ΔTm MRCKa (MRCKa): 0.1 °C | ΔTm BRAF (BRAF): 0.5 °C | ΔTm CASK (CASK): 0.7 °C | ΔTm AURKB (AURKB): 4.9 °C | ΔTm CHK2 (CHK2): 1.9 °C | ΔTm BIKE (BIKE): 8.5 °C | ΔTm MYT1 (MYT1): -0.5 °C | ΔTm CDKL1 (CDKL1): -0.4 °C | ΔTm MAPK15 (MAPK15): 1.9 °C | ΔTm EPHA5 (EPHA5): -0.5 °C | ΔTm DYRK2 (DYRK2): 3.5 °C | ΔTm MAP2K1 (MAP2K1): 0.1 °C | ΔTm VRK1 (VRK1): -0.5 °C | ΔTm MSSK1 (MSSK1): -0.2 °C | ΔTm EPHB1 (EPHB1): 0.0 °C | ΔTm CLK3 (CLK3): 1.0 °C | ΔTm CAMK2D (CAMK2D): -0.4 °C
